Test results published in IntAct's records for PubMed 35512704.

B1: RAC-alpha serine/threonine-protein kinase (Homo sapiens), P31749 (parent)
chain: MSDVAIVKEGWLHKRGEYIKTWRPRYFLLKNDGTFIGYKERPQDVDQREAPLNNFSVAQCQLMKTERPRPNTFIIRCLQWTTVIERTFHVETPEEREEWTTAIQTVADGLKKQEEEEMDFRSGSPSDNSGAEEMEVSLAKPKHRVTMNEFEYLKLLGKGTFGKVILVKEKATGRYYAMKILKKEVIVAKDEVAHTLTENRVLQNSRHPFLTALKYSFQTHDRLCFVMEYANGGELFFHLSRERVFSEDRARFYGAEIVSALDYLHSEKNVVYRDLKLENLMLDKDGHIKITDFGLCKEGIKDGATMKTFCGTPEYLAPEVLEDNDYGRAVDWWGLGVVMYEMMCGRLPFYNQDHEKLFELILMEEIRFPRTLGPEAKSLLSGLLKKDPKQRLGGGSEDAKEIMQHRFFAGIVWQHVYEKKLSPPFKPQVTSETDTRYFDEEFTAQMITITPPDQDDSMECVDSERRPHFPQFSYSASGTA

Variants of: B1
Settings: with kdm5c_human KDM5C

Variant | effect of a mutation on the interaction
MSDVAIVKEGWLHKRGKYIKTWRPRYFLLKNDGTFIGYKERPQDVDQREAPLNNFSVAQCQLMKTERPRPNTFIIRCLQWTTVIERTFHVETPEEREEWTTAIQTVADGLKKQEEEEMDFRSGSPSDNSGAEEMEVSLAKPKHRVTMNEFEYLKLLGKGTFGKVILVKEKATGRYYAMKILKKEVIVAKDEVAHTLTENRVLQNSRHPFLTALKYSFQTHDRLCFVMEYANGGELFFHLSRERVFSEDRARFYGAEIVSALDYLHSEKNVVYRDLKLENLMLDKDGHIKITDFGLCKEGIKDGATMKTFCGTPEYLAPEVLEDNDYGRAVDWWGLGVVMYEMMCGRLPFYNQDHEKLFELILMEEIRFPRTLGPEAKSLLSGLLKKDPKQRLGGGSEDAKEIMQHRFFAGIVWQHVYEKKLSPPFKPQVTSETDTRYFDEEFTAQMITITPPDQDDSMECVDSERRPHFPQFSYSASGTA [E17K] | causing an interaction

Variants of: B1
Settings: with maga6_human MAGEA6, P43360

Variant | effect of a mutation on the interaction
MSDVAIVKEGWLHKRGKYIKTWRPRYFLLKNDGTFIGYKERPQDVDQREAPLNNFSVAQCQLMKTERPRPNTFIIRCLQWTTVIERTFHVETPEEREEWTTAIQTVADGLKKQEEEEMDFRSGSPSDNSGAEEMEVSLAKPKHRVTMNEFEYLKLLGKGTFGKVILVKEKATGRYYAMKILKKEVIVAKDEVAHTLTENRVLQNSRHPFLTALKYSFQTHDRLCFVMEYANGGELFFHLSRERVFSEDRARFYGAEIVSALDYLHSEKNVVYRDLKLENLMLDKDGHIKITDFGLCKEGIKDGATMKTFCGTPEYLAPEVLEDNDYGRAVDWWGLGVVMYEMMCGRLPFYNQDHEKLFELILMEEIRFPRTLGPEAKSLLSGLLKKDPKQRLGGGSEDAKEIMQHRFFAGIVWQHVYEKKLSPPFKPQVTSETDTRYFDEEFTAQMITITPPDQDDSMECVDSERRPHFPQFSYSASGTA [E17K] | causing an interaction

Variants of: B1
Settings: with m3k1_human MAP3K1, Q13233

Variant | effect of a mutation on the interaction
MSDVAIVKEGWLHKRGKYIKTWRPRYFLLKNDGTFIGYKERPQDVDQREAPLNNFSVAQCQLMKTERPRPNTFIIRCLQWTTVIERTFHVETPEEREEWTTAIQTVADGLKKQEEEEMDFRSGSPSDNSGAEEMEVSLAKPKHRVTMNEFEYLKLLGKGTFGKVILVKEKATGRYYAMKILKKEVIVAKDEVAHTLTENRVLQNSRHPFLTALKYSFQTHDRLCFVMEYANGGELFFHLSRERVFSEDRARFYGAEIVSALDYLHSEKNVVYRDLKLENLMLDKDGHIKITDFGLCKEGIKDGATMKTFCGTPEYLAPEVLEDNDYGRAVDWWGLGVVMYEMMCGRLPFYNQDHEKLFELILMEEIRFPRTLGPEAKSLLSGLLKKDPKQRLGGGSEDAKEIMQHRFFAGIVWQHVYEKKLSPPFKPQVTSETDTRYFDEEFTAQMITITPPDQDDSMECVDSERRPHFPQFSYSASGTA [E17K] | causing an interaction

Variants of: B1
Settings: with mk10_human MAPK10, P53779

Variant | effect of a mutation on the interaction
MSDVAIVKEGWLHKRGKYIKTWRPRYFLLKNDGTFIGYKERPQDVDQREAPLNNFSVAQCQLMKTERPRPNTFIIRCLQWTTVIERTFHVETPEEREEWTTAIQTVADGLKKQEEEEMDFRSGSPSDNSGAEEMEVSLAKPKHRVTMNEFEYLKLLGKGTFGKVILVKEKATGRYYAMKILKKEVIVAKDEVAHTLTENRVLQNSRHPFLTALKYSFQTHDRLCFVMEYANGGELFFHLSRERVFSEDRARFYGAEIVSALDYLHSEKNVVYRDLKLENLMLDKDGHIKITDFGLCKEGIKDGATMKTFCGTPEYLAPEVLEDNDYGRAVDWWGLGVVMYEMMCGRLPFYNQDHEKLFELILMEEIRFPRTLGPEAKSLLSGLLKKDPKQRLGGGSEDAKEIMQHRFFAGIVWQHVYEKKLSPPFKPQVTSETDTRYFDEEFTAQMITITPPDQDDSMECVDSERRPHFPQFSYSASGTA [E17K] | causing an interaction

Variants of: B1
Settings: with mk04_human MAPK4, P31152

Variant | effect of a mutation on the interaction
MSDVAIVKEGWLHKRGKYIKTWRPRYFLLKNDGTFIGYKERPQDVDQREAPLNNFSVAQCQLMKTERPRPNTFIIRCLQWTTVIERTFHVETPEEREEWTTAIQTVADGLKKQEEEEMDFRSGSPSDNSGAEEMEVSLAKPKHRVTMNEFEYLKLLGKGTFGKVILVKEKATGRYYAMKILKKEVIVAKDEVAHTLTENRVLQNSRHPFLTALKYSFQTHDRLCFVMEYANGGELFFHLSRERVFSEDRARFYGAEIVSALDYLHSEKNVVYRDLKLENLMLDKDGHIKITDFGLCKEGIKDGATMKTFCGTPEYLAPEVLEDNDYGRAVDWWGLGVVMYEMMCGRLPFYNQDHEKLFELILMEEIRFPRTLGPEAKSLLSGLLKKDPKQRLGGGSEDAKEIMQHRFFAGIVWQHVYEKKLSPPFKPQVTSETDTRYFDEEFTAQMITITPPDQDDSMECVDSERRPHFPQFSYSASGTA [E17K] | causing an interaction

Variants of: B1
Settings: with mk07_human MAPK7, Q13164

Variant | effect of a mutation on the interaction
MSDVAIVKEGWLHKRGKYIKTWRPRYFLLKNDGTFIGYKERPQDVDQREAPLNNFSVAQCQLMKTERPRPNTFIIRCLQWTTVIERTFHVETPEEREEWTTAIQTVADGLKKQEEEEMDFRSGSPSDNSGAEEMEVSLAKPKHRVTMNEFEYLKLLGKGTFGKVILVKEKATGRYYAMKILKKEVIVAKDEVAHTLTENRVLQNSRHPFLTALKYSFQTHDRLCFVMEYANGGELFFHLSRERVFSEDRARFYGAEIVSALDYLHSEKNVVYRDLKLENLMLDKDGHIKITDFGLCKEGIKDGATMKTFCGTPEYLAPEVLEDNDYGRAVDWWGLGVVMYEMMCGRLPFYNQDHEKLFELILMEEIRFPRTLGPEAKSLLSGLLKKDPKQRLGGGSEDAKEIMQHRFFAGIVWQHVYEKKLSPPFKPQVTSETDTRYFDEEFTAQMITITPPDQDDSMECVDSERRPHFPQFSYSASGTA [E17K] | causing an interaction

Variants of: B1
Settings: with sin1_human MAPKAP1, Q9BPZ7

Variant | effect of a mutation on the interaction
MSDVAIVKEGWLHKRGKYIKTWRPRYFLLKNDGTFIGYKERPQDVDQREAPLNNFSVAQCQLMKTERPRPNTFIIRCLQWTTVIERTFHVETPEEREEWTTAIQTVADGLKKQEEEEMDFRSGSPSDNSGAEEMEVSLAKPKHRVTMNEFEYLKLLGKGTFGKVILVKEKATGRYYAMKILKKEVIVAKDEVAHTLTENRVLQNSRHPFLTALKYSFQTHDRLCFVMEYANGGELFFHLSRERVFSEDRARFYGAEIVSALDYLHSEKNVVYRDLKLENLMLDKDGHIKITDFGLCKEGIKDGATMKTFCGTPEYLAPEVLEDNDYGRAVDWWGLGVVMYEMMCGRLPFYNQDHEKLFELILMEEIRFPRTLGPEAKSLLSGLLKKDPKQRLGGGSEDAKEIMQHRFFAGIVWQHVYEKKLSPPFKPQVTSETDTRYFDEEFTAQMITITPPDQDDSMECVDSERRPHFPQFSYSASGTA [E17K] | causing an interaction
